Reference: patent publication US10004701B2, “Methods and compositions for treating infection” (UNIVERSITY OF ROCHESTER, priority 2012, dated 2018)

Experiments:
Test in all cases: AK assay 384-well format, Prestwick library screening
Details in all cases: 50 μM final drug concentration
E. coli = test system: E. coli
E. faecium = test system: E. faecium
K. pneumoniae = test system: K. pneumoniae
E. cloacae = test system: E. cloacae
[1] = test system: A. baumannii strain 98-37-09
P. aeruginosa = test system: P. aeruginosa
[2] = test system: S. aureus strain USA300-0114
[3] = cutoff for positive-scoring molecules 3-fold increase

Substance	AK-based Prestwick Library Screening Results, E. coli (fold increase in extracellular AK activity) (E. coli; [3])	AK-based Prestwick Library Screening Results, E. faecium (fold increase in extracellular AK activity) (E. faecium; [3])	AK-based Prestwick Library Screening Results, K. pneumoniae (fold increase in extracellular AK activity) (K. pneumoniae; [3])	AK-based Prestwick Library Screening Results, E. cloacae (fold increase in extracellular AK activity) (E. cloacae; [3])	AK-based Prestwick Library Screening Results, A. baumannii (fold increase in extracellular AK activity) [1, 3]	AK-based Prestwick Library Screening Results, P. aeruginosa (fold increase in extracellular AK activity) (P. aeruginosa; [3])	AK-based Prestwick Library Screening Results, S. aureus (fold increase in extracellular AK activity) [2, 3]	AK-based Prestwick library screening result, E. coli (fold increase in extracellular AK activity) (E. coli; planktonic E. coli, positive cutoff 3-fold increase)	AK-based Prestwick library screening result, E. faecium (fold increase in extracellular AK activity) (E. faecium; planktonic E. faecium, positive cutoff 3-fold increase)	AK-based Prestwick library screening result, K. pneumoniae (fold increase in extracellular AK activity) (K. pneumoniae; planktonic K. pneumoniae, positive cutoff 3-fold increase)	AK-based Prestwick library screening result, E. cloacae (fold increase in extracellular AK activity) (E. cloacae; planktonic E. cloacae, positive cutoff 3-fold increase)	AK-based Prestwick library screening result, A. baumannii (fold increase in extracellular AK activity) ([1]; planktonic A. baumannii, positive cutoff 3-fold increase)	AK-based Prestwick library screening result, P. aeruginosa (fold increase in extracellular AK activity) (P. aeruginosa; planktonic P. aeruginosa, positive cutoff 3-fold increase)	AK-based Prestwick library screening result, S. aureus (fold increase in extracellular AK activity) ([2]; planktonic S. aureus, positive cutoff 3-fold increase)
Pirlindole mesylate	0.7	0.9	0.6	0.7	0.7	0.7	0.6	–	–	–	–	–	–	–
Thiethylperazine malate	–	–	–	–	–	–	–	1.1	1.0	1.0	1.0	2.1	0.8	0.8
